Results: patent US20130216543A1

Target: EGFRvIII on U87-derived transfected cells (UniProt P00533)
Test: cell-based or functional assay

downregulation of total (wild type plus mutant) surface EGFR on U87-derived cell lines: 60 to 80%
Substance: BS28-HC (bispecific antibody)
